Values of other authors in patent publication US12589095B2, “Unit dosage form for transmucosal drug delivery of an active pharmaceutical ingredient” (Primo Pharmatech LLC, priority 2019, dated 2026).

Conditions: known / published value; cited from earlier work

Substance	HLB
Polyoxyethylene alkyl phenol	12.0
Triethanolamine oleate	11.1
